Source: publication PMC3794980, “Identification of Conserved and HLA Promiscuous DENV3 T-Cell Epitopes” (PLoS Neglected Tropical Diseases, 2013)
Like-named read-outs stand apart in the source and are kept apart here.

Tests used:
Test in all cases: biochemical
Format in all cases: binding
DRB1*1501 = DRB1*1501 (Homo sapiens, UniProt P01903+P01911)
DRB1*0101 = DRB1*0101 (Homo sapiens, UniProt P01903+P01911, A100R/D57E/F55L/F60I/F76Y/I96L/L162R/M171V/P40L/Q125E/R42F/V115G/Y59C)
DRB1*0404 = DRB1*0404 (Homo sapiens, UniProt P01903+P01911, A100R/A169T/F76Y/I96L/K127E/L162R/M171V/N62H/P40V/Q125Y/R42H/S133A/S149N/S66Y/V209L/W38E)
DRB1*0405 = DRB1*0405 (Homo sapiens, UniProt P01903+P01911, A100R/A169T/D86S/F76Y/I96L/K127E/L162R/M171V/N62H/P40V/Q125Y/R42H/S133A/S149N/S66Y/V115G/V209L/W38E)
DRB1*0701 = DRB1*0701 (Homo sapiens, UniProt P01903+P01911, A100R/A102G/A103Q/D57E/D86V/E43K/F76Y/K127E/L162R/M171V/P40G/Q125H/Q99D/R33Q/R42Y/R54Q/S133A/S66F/T210M/V115G/Y107V/Y59L/Y89S)
DRB1*1101 = DRB1*1101 (Homo sapiens, UniProt P01903+P01911, A100R/A169T/A87E/I96F/K41T/L162R/M171V/P40S/Q125H/Q178H/Q39Y/Q99D/R42S/S66Y/T262R/V115G/W38E)
DRB1*1302 = DRB1*1302 (Homo sapiens, UniProt P01903+P01911, A100E/A169T/K41T/L162R/M171V/P40S/Q125H/Q178H/Q39Y/Q99D/R42S/S66N/T262R/V115G/W38E/Y61H)
DRB1*0802 = DRB1*0802 (Homo sapiens, UniProt P01903+P01911, A100R/A103L/A169T/F76Y/H45Y/I96F/K41T/L162R/M171V/P40S/Q125H/Q178H/Q39Y/Q99D/R218S/R42G/S66Y/V115G/W38E)
DRB1*0901 = DRB1*0901 (Homo sapiens, UniProt P01903+P01911, A100R/A103E/D57H/D86V/F55Y/F60I/F76Y/I96F/K127E/L162R/M171V/P40D/Q125H/Q99R/R33Q/R42F/S133A/S66N/T210M/V115G/W38K/Y107V/Y59G/Y89S)
DRB1*0301 = DRB1*0301 (Homo sapiens, UniProt P01903+P01911, A100K/A102G/A103R/A169T/F55Y/I96L/K41T/L162R/M171V/P40S/Q125H/Q178H/Q39Y/R42S/S66N/T106N/T262R/W38E/Y61H)
[1] = read-out: Binding Affinity (nM) DRB1*1101
[2] = competitive inhibition of radiolabeled standard peptide, '-' distinct from ND, read-out: Binding Affinity (nM) DRB1*1302
[3] = competitive inhibition of radiolabeled standard peptide, '-' distinct from ND, read-out: Binding Affinity (nM) DRB1*0901

Compound	IC50 (DRB1*1501; read-out: Binding Affinity (nM) DRB1*1501)	IC50 (DRB1*0101)	IC50 (DRB1*0404)	IC50 (DRB1*0405; read-out: Binding Affinity (nM) DRB1*0405)	IC50 (DRB1*0701)	IC50 (DRB1*1101; [1])	IC50 (DRB1*1302; [2])	IC50 (DRB1*0802)	IC50 (DRB1*0901; [3])	IC50 (DRB1*0301)	IC50 (DRB1*1501)	IC50 (DRB1*0404; read-out: Binding Affinity (nM) DRB1*0404)	IC50 (DRB1*0405)	IC50 (DRB1*1101)	IC50 (DRB1*1302)	IC50 (DRB1*0901)	IC50 (DRB1*0701; read-out: Binding Affinity (nM) DRB1*0701)	IC50 (DRB1*0301; read-out: Binding Affinity (nM) DRB1*0301)
CC[C@H](C)[C@H](NC(=O)[C@@H](NC(=O)CNC(=O)[C@H](Cc1c[nH]cn1)NC(=O)[C@H](CCC(N)=O)NC(=O)[C@@H](NC(=O)[C@H](CCC(=O)O)NC(=O)[C@H](CO)NC(=O)[C@@H](NC(=O)[C@H](CCC(=O)O)NC(=O)[C@H](CCCCN)NC(=O)[C@H](CCCCN)NC(=O)[C@@H](N)CC(C)C)C(C)C)[C@@H](C)O)[C@@H](C)O)C(=O)N[C@@H](CC(C)C)C(=O)N[C@H](C(=O)O)C(C)C [Envelope 306-320]	> 20000 nM	6.55 µM	16400 nM	> 20000 nM	1440 nM	> 20000 nM	6840 nM	1.86 µM	13300 nM	5580 nM								
CC[C@H](C)[C@H](N)C(=O)NCC(=O)N[C@@H](CCCCN)C(=O)N[C@@H](CCSC)C(=O)N[C@@H](Cc1ccccc1)C(=O)N[C@@H](CCC(=O)O)C(=O)N[C@@H](C)C(=O)N[C@H](C(=O)N[C@@H](C)C(=O)N[C@@H](CCCNC(=N)N)C(=O)NCC(=O)N[C@@H](C)C(=O)N[C@@H](CCCNC(=N)N)C(=O)N[C@@H](CCCNC(=N)N)C(=O)N[C@@H](CCSC)C(=O)O)[C@@H](C)O [Envelope 396-410]		0.0049 µM						0.106 µM		424 nM	258 nM	> 20000 nM	6950 nM	39 nM	1600 nM	40 nM		
CC[C@H](C)[C@H](NC(=O)[C@H](Cc1ccccc1)NC(=O)[C@H](CO)NC(=O)[C@H](CO)NC(=O)[C@H](CC(N)=O)NC(=O)[C@@H](N)CCC(N)=O)C(=O)N[C@H](C(=O)N[C@@H](CC(=O)O)C(=O)NCC(=O)N1CCC[C@H]1C(=O)N[C@@H](CC(N)=O)C(=O)N[C@H](C(=O)N1CCC[C@H]1C(=O)N[C@@H](CCC(=O)O)C(=O)N[C@@H](CS)C(=O)O)[C@@H](C)O)[C@@H](C)CC [NS1 129-143]		2.57 µM			8580 nM			7.66 µM			4390 nM			6260 nM	1770 nM	3580 nM		
CC[C@H](C)[C@H](NC(=O)[C@H](CCSC)NC(=O)[C@H](CC(=O)O)NC(=O)[C@H](CO)NC(=O)[C@H](CCC(=O)O)NC(=O)[C@H](CC(C)C)NC(=O)[C@@H](NC(=O)CNC(=O)[C@H](CC(N)=O)NC(=O)[C@@H](N)CO)C(C)C)C(=O)N[C@H](C(=O)N1CCC[C@H]1C(=O)N[C@@H](CCCCN)C(=O)N[C@@H](CO)C(=O)N[C@@H](CC(C)C)C(=O)O)[C@@H](C)CC [NS1 233-247]		4.3 µM	5940 nM			> 20000 nM	1660 nM	2.44 µM	17300 nM	73 nM	5090 nM		3620 nM				> 20000 nM	
CC(C)C[C@H](NC(=O)[C@H](CCCCN)NC(=O)CNC(=O)[C@H](CC(C)C)NC(=O)[C@@H](N)Cc1c[nH]cn1)C(=O)N[C@@H](CCC(=O)O)C(=O)N[C@@H](CC(C)C)C(=O)N[C@@H](CC(=O)O)C(=O)N[C@@H](Cc1ccccc1)C(=O)N[C@@H](CC(N)=O)C(=O)N[C@@H](Cc1ccc(O)cc1)C(=O)N[C@@H](CS)C(=O)N[C@@H](CCC(=O)O)C(=O)NCC(=O)N[C@H](C(=O)O)[C@@H](C)O [NS1 269-283]		6.34 µM	2520 nM		11000 nM	> 20000 nM		1.12 µM		18 nM	4160 nM				1910 nM	16700 nM		
CC(C)C[C@H](NC(=O)[C@H](CCCCN)NC(=O)CNC(=O)[C@H](CO)NC(=O)[C@@H](NC(=O)[C@@H](NC(=O)[C@@H](NC(=O)[C@@H](NC(=O)[C@H](CCCNC(=N)N)NC(=O)[C@H](CC(C)C)NC(=O)[C@H](CO)NC(=O)[C@@H]1CCCN1C(=O)CNC(=O)[C@H](CCCNC(=N)N)NC(=O)[C@@H](N)[C@@H](C)O)[C@@H](C)O)[C@@H](C)O)[C@@H](C)O)C(C)C)C(=O)O [NS1 293-307]		2.6 µM	3310 nM		83 nM	> 20000 nM		12.3 µM			11300 nM		3010 nM		14500 nM	17100 nM		
CSCC[C@H](NC(=O)[C@H](Cc1ccc(O)cc1)NC(=O)[C@H](CCCNC(=N)N)NC(=O)[C@H](CC(C)C)NC(=O)[C@@H]1CCCN1C(=O)[C@@H]1CCCN1C(=O)[C@H](CC(C)C)NC(=O)[C@@H](NC(=O)[C@H](CS)NC(=O)[C@H](CO)NC(=O)[C@H](CCCNC(=N)N)NC(=O)[C@@H](N)CS)[C@@H](C)O)C(=O)NCC(=O)N[C@@H](CCC(=O)O)C(=O)N[C@@H](CC(=O)O)C(=O)O [NS1 313-327]		1.98 µM			13700 nM			5.24 µM			1870 nM				16400 nM	18300 nM		
CC[C@H](C)[C@H](N)C(=O)N[C@@H](CO)C(=O)N[C@@H](Cc1ccc(O)cc1)C(=O)NCC(=O)NCC(=O)NCC(=O)N[C@@H](Cc1c[nH]c2ccccc12)C(=O)N[C@@H](CCCNC(=N)N)C(=O)N[C@@H](CC(C)C)C(=O)N[C@@H](CO)C(=O)N[C@@H](C)C(=O)N[C@@H](CCC(N)=O)C(=O)N[C@@H](Cc1c[nH]c2ccccc12)C(=O)N[C@@H](CCC(N)=O)C(=O)N[C@@H](CCCCN)C(=O)O [NS3 77-91]		0.139 µM	2210 nM					3.6 µM					1430 nM	286 nM	6610 nM			> 20000 nM
CC[C@H](C)[C@H](NC(=O)[C@@H](NC(=O)[C@H](CCCCN)NC(=O)[C@@H](N)CCCCN)C(C)C)C(=O)N[C@@H](CCC(N)=O)C(=O)N[C@@H](CC(C)C)C(=O)N[C@@H](CO)C(=O)N[C@@H](CCCNC(=N)N)C(=O)N[C@@H](CCCCN)C(=O)N[C@H](C(=O)N[C@@H](Cc1ccccc1)C(=O)N[C@@H](CC(=O)O)C(=O)N[C@H](C(=O)N[C@@H](CCC(=O)O)C(=O)N[C@@H](Cc1ccc(O)cc1)C(=O)O)[C@@H](C)O)[C@@H](C)O [NS3 381-395]			16300 nM		5390 nM			1.9 µM			2170 nM				2510 nM			
CC[C@H](C)[C@H](NC(=O)CNC(=O)[C@H](CO)NC(=O)[C@H](CCCCN)NC(=O)[C@H](CCCCN)NC(=O)[C@H](Cc1ccc(O)cc1)NC(=O)[C@H](CC(C)C)NC(=O)[C@H](CC(=O)O)NC(=O)[C@H](Cc1ccccc1)NC(=O)[C@H](CCC(=O)O)NC(=O)[C@@H](N)CCCCN)C(=O)N[C@H](C(=O)N[C@@H](CCC(=O)O)C(=O)N[C@H](C(=O)N[C@@H](CC(=O)O)C(=O)N[C@@H](CCCNC(=N)N)C(=O)N[C@H](C(=O)O)[C@@H](C)O)C(C)C)[C@@H](C)O [NS5 23-39]		1.87 µM								3690 nM	2540 nM		1520 nM	2480 nM		1760 nM		
CC[C@H](C)[C@H](NC(=O)[C@H](CS)NC(=O)[C@H](Cc1ccccc1)NC(=O)[C@H](CCC(N)=O)NC(=O)[C@H](CC(N)=O)NC(=O)[C@H](CC(N)=O)NC(=O)[C@H](CCCCN)NC(=O)[C@H](CC(C)C)NC(=O)[C@H](Cc1c[nH]c2ccccc12)NC(=O)[C@@H]1CCCN1C(=O)[C@H](CCC(=O)O)NC(=O)[C@@H](NC(=O)[C@H](CCSC)NC(=O)[C@H](CCCCN)NC(=O)[C@@H](N)CC(C)C)C(C)C)C(=O)N[C@@H](CCCCN)C(=O)N[C@H](C(=O)O)C(C)C [NS5 165-181]		0.41 µM								2940 nM			8480 nM					
